Assays:
[1] = tested on: 7-(methylethoxyphosphinyloxy)-1-methylquinolinium iodide (MEPQ) poisoning; assay: Protection of pretreated guinea pigs against MEPQ challenge
[2] = molecular target: muscarinic receptor (ileum, predominantly the M2 receptor subtype) (Cavia porcellus, UniProt H0W1Z3); assay: Acetylcholine-induced contraction of guinea pig ileum (inhibition); settings: for pA2, inhibition of guinea pig ileum contraction / Kb: acetylcholine-induced contraction; for pA2, inhibition of guinea pig ileum contraction: mean of four to five independent experiments ± SEM; for Kb: read-out: KB, inhibition of guinea pig ileum contraction, from Schild plot
[3] = tested on: muscarinic receptors; assay: Overall antimuscarinic activity and muscarinic subtype specificity (Table I comparison); settings: for muscarinic subtype specificity: comparison of inhibition constants
[4] = molecular target: T1, human serum butyrylcholinesterase (Homo sapiens, UniProt P06276); assay: Inhibition (carbamylation) kinetics of human serum butyrylcholinesterase; settings: for potency relative to physostigmine and pyridostigmine: human butyrylcholinesterase
[5] = molecular target: T1, human serum butyrylcholinesterase; settings: Aarbakke, J. et al; cited from earlier work
[6] = tested on: butyrylcholinesterase over acetylcholinesterase; settings: steady-state kinetics; cited from earlier work
[7] = tested on: muscarinic receptor, predominantly the M1 receptor subtype (cerebral cortex); assay: [^3 H]NMS binding to cerebral cortex
[8] = molecular target: pancreatic acinar cells (M2 receptor subtype) (Rattus norvegicus, UniProt P08483); assay: Inhibition of carbachol-induced α-amylase release from pancreatic acinar cells
[9] = five pretreated animals, 4 LD50 of MEPQ

Amino acid sequences for entries named in this document (tags omitted). Residues count along the entry.
UniProt H0W1Z3, 1-590: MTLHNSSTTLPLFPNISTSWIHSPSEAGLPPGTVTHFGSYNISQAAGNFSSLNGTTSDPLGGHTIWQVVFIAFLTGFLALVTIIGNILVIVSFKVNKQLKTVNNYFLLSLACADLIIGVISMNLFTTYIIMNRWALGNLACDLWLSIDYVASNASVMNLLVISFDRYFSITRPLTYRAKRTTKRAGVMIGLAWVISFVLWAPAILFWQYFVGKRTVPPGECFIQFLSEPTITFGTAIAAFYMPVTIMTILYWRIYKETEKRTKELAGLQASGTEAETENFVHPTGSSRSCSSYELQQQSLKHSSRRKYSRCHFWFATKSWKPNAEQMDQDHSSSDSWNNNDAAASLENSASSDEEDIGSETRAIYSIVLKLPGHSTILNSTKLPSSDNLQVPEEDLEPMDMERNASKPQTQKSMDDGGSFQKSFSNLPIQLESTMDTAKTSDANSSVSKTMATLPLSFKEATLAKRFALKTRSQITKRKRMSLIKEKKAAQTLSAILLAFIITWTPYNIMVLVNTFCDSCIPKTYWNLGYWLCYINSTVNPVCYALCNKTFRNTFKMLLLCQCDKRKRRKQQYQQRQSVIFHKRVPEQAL
UniProt P06276, 29-602 limits assumed: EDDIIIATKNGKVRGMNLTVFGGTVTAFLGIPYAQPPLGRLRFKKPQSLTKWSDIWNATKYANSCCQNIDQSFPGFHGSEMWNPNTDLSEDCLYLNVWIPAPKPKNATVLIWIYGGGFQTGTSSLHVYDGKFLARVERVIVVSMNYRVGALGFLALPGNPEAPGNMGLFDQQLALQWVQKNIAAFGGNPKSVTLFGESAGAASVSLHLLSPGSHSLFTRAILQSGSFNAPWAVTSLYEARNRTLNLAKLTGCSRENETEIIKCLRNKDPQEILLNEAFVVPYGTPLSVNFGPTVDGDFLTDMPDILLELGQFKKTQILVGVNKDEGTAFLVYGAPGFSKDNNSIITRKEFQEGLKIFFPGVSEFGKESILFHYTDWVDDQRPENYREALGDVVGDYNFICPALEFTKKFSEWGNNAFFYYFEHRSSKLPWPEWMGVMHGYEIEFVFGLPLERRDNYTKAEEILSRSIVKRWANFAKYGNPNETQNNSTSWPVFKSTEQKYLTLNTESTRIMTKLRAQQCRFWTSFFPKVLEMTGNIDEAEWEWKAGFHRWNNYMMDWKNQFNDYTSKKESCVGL
UniProt P08483, whole entry, looked up: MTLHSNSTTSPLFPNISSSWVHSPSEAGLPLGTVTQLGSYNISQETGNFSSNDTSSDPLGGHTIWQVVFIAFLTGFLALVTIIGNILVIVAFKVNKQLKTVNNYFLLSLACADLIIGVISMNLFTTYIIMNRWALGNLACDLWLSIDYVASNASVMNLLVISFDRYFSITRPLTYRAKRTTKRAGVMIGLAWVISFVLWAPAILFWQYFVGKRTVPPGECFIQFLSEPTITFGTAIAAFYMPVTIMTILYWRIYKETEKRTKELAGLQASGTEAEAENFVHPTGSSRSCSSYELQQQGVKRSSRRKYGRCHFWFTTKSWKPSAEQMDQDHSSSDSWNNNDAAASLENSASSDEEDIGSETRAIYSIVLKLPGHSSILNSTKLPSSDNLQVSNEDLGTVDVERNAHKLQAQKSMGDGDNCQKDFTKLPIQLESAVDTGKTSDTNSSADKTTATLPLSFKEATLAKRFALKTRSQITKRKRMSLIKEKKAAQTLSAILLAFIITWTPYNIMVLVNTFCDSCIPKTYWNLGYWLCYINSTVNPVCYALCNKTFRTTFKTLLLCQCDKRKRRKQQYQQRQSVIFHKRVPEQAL

Compound: CCN(CC)CCOC(=O)C(C)(c1ccccc1)c1ccc(OC(=O)NC)cc1 (centres unmarked)
- survival of challenge of 2 LD50 of MEPQ ([1]; 30 min pretreatment with dose sufficient to inhibit cholinesterase in vivo by about 60%): can survive a challenge of 2 LD50 of MEPQ
- animals that died after about 15 min [1, 9]: two
- animals that died after about 45 min [1, 9]: one
- animals that survived, alive at the end of the day [1, 9]: two
- pA2, inhibition of guinea pig ileum contraction [2]: 7.3 ± 0.1
- pA2, inhibition of guinea pig ileum contraction ([2]; listed as monomethyl carbaphen (16)): 7.3±0.1
- Kb [2]: 50 nM
- muscarinic subtype specificity ([3]; Table I): more specificity for the pancreatic M2 receptor subtype over the M1 subtype of the cortex
- antimuscarinic activity ([3]; overall, Table I, listed as Compound 16): potent antimuscarinic activity
- antimuscarinic activity ([3]; overall, Table I, listed as monomethyl carbaphen): very similar to that of aprophen
- antimuscarinic activity ([3]; overall, Table I, listed as monomethyl carbaphen (16)): most potent antimuscarinic analog
- antimuscarinic activity ([3]; overall, Table I, listed as monomethyl carbaphen (Compound 16)): almost the same anti-muscarinic profile as the known compound aprophen
- potency relative to physostigmine and pyridostigmine [4]: high potencies on the order of those of physostigmine and pyridostigmine

Compound: CCN(CC)CCOC(=O)C(C)(c1ccccc1)c1ccccc1
- hydrolysis by human serum butyrylcholinesterase [5]: not subject to hydrolysis by human serum butyrylcholinesterase
- preferential inhibition of butyrylcholinesterase over acetylcholinesterase [6]: preferentially inhibit butyrylcholinesterase over acetylcholinesterase

Compound: CCN(CC)CCOC(=O)C(C)(c1ccc(OC(=O)N(C)C)cc1)c1ccc(OC(=O)N(C)C)cc1
- Ki, inhibition of cerebral cortex [^3 H]NMS binding ([7]; 2 nM [^3 H]NMS, 25° C., mean of four to five independent experiments ± SEM): marginal activity
- Ki, inhibition of pancreatic acini α-amylase release ([8]; 10^-5 M carbachol, mean of four to five independent experiments ± SEM): not active
- pA2, inhibition of guinea pig ileum contraction [2]: not active
- muscarinic subtype specificity ([3]; Table I): do not exhibit any muscarinic subtype specificity
- antimuscarinic activity ([3]; overall, Table I): inactive
- antimuscarinic activity ([3]; overall, Table I, listed as bisdimethyl carbaphen (Compound 5)): lack of activity
- ability to carbamylate / inhibition of human butyrylcholinesterase ([4]; time-dependent): potent ability to carbamylate butyrylcholinesterase

Compound: CCN(CC)CCOC(=O)C(C)(c1ccccc1)c1ccc(O)cc1 (centres unmarked)
- pA2, inhibition of guinea pig ileum contraction [2]: 7.2 ± 0.3
- Kb [2]: 70 nM
- antimuscarinic activity ([3]; overall, Table I, listed as Compound 14): potent antimuscarinic activity
- antimuscarinic activity ([3]; overall, Table I, listed as hydroxy aprophen (Compound 14)): potent anti-muscarinic drug
- antimuscarinic activity ([3]; overall, Table I, listed as hydroxy aprophen, Compound 14): almost as potent an antimuscarinic as monomethyl carbaphen
- preference for the M2 subtype of the pancreas over the M1 subtype of the cerebral cortex ([3]; ratio of Ki values): about 18 fold

Compound: CCN(CC)CCOC(=O)C(C)(c1ccc(O)cc1)c1ccc(O)cc1
- pA2, inhibition of guinea pig ileum contraction [2]: 5.7 ± 0.1
- Kb [2]: 2000 nM
- antimuscarinic activity ([3]; overall, Table I): poor antimuscarinic potency
- Ki ([3]; read-out: antimuscarinic inhibition constants, region, overall, Table I): 1000 nM

Compound: CCN(CC)CCOC(=O)C(C)(c1ccccc1)c1ccc(OC(=O)N(C)C)cc1 (centres unmarked)
- inhibition of [^3 H]NMS binding relative to monomethyl carbaphen ([7]; comparison with Compound 16): one order of magnitude lower
- inhibition of α-amylase release relative to monomethyl carbaphen ([8]; comparison with Compound 16): one order of magnitude lower
- pA2, inhibition of guinea pig ileum contraction [2]: 7.1 ± 0.1
- pA2 for inhibition of ileum contraction relative to monomethyl carbaphen ([2]; comparison with Compound 16): about the same as that of monomethyl carbahen
- Kb [2]: 83 nM
- muscarinic subtype specificity ([3]; Table I): do not exhibit any muscarinic subtype specificity
- antimuscarinic activity ([3]; overall, Table I, listed as Compound 15): potent antimuscarinic activity
- antimuscarinic activity ([3]; overall, Table I, listed as dimethyl carbaphen (Compound 15)): almost the same anti-muscarinic profile as the known compound aprophen
- potency relative to physostigmine and pyridostigmine [4]: high potencies on the order of those of physostigmine and pyridostigmine

Compound: CCN(CC)CCOC(=O)C(C)(c1ccc(O)cc1)c1ccc(OC(=O)N(C)C)cc1 (centres unmarked)
- pA2, inhibition of guinea pig ileum contraction [2]: 5.5 ± 0.2
- Kb [2]: 3200 nM
- muscarinic subtype specificity ([3]; Table I): do not exhibit any muscarinic subtype specificity
- antimuscarinic activities relative to dimethyl carbaphen ([3]; comparison with Compound 15): one to two orders of magnitude lower
- antimuscarinic activity ([3]; overall, Table I): poor antimuscarinic potency
- potency relative to physostigmine and pyridostigmine [4]: high potencies on the order of those of physostigmine and pyridostigmine

From US5026897A, “Carbaphens: aprophen analogs that are binary antidotes for organophosphate poisoning” (dated 1991)
